These are literature values, as cited in paper PMC6062831 (ACS Central Science, 2018).

The conditions of the data set: calculated by Maier et al.; cited from earlier work.

As for `Clc1ccc2c(c1)C(N1CCNCC1)=Nc1ccccc1O2` [amoxapine], the calculated colon concentration is 138 µM and the “calculated small intestinal concentration” value was 106 µM.
